Laboratory results reported in PubChem BioAssay (NCI).
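Grown in 96-well plates, cells were treated for 48 hours with each compound at five concentrations. Insufficient inhibition: endpoint recorded as highest concentration tested. At the GI50, growth is halved. TGI: total growth inhibition.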

Key:
Experiment in all cases: DTP human tumour cell line panel, 48 h
CCRF-CEM leukemia = tested on: CCRF-CEM leukemia
HT29 colon = tested on: HT29 colon
HCT-116 colon = tested on: HCT-116 colon
SN12C renal = tested on: SN12C renal
LOX IMVI melanoma = tested on: LOX IMVI melanoma
U251 CNS = tested on: U251 CNS
MCF7 breast = tested on: MCF7 breast
HL-60(TB) leukemia = tested on: HL-60(TB) leukemia
RXF 393 renal = tested on: RXF 393 renal
NCI-H460 lung = tested on: NCI-H460 lung
MDA-MB-435 = tested on: MDA-MB-435
SW-620 colon = tested on: SW-620 colon
SR leukemia = tested on: SR leukemia
BT-549 breast = tested on: BT-549 breast
TK-10 renal = tested on: TK-10 renal
SK-MEL-28 melanoma = tested on: SK-MEL-28 melanoma
CAKI-1 renal = tested on: CAKI-1 renal
MDA-N = tested on: MDA-N
HOP-92 NSCLC = tested on: HOP-92 NSCLC
MDA-MB-231 breast = tested on: MDA-MB-231 breast
M14 melanoma = tested on: M14 melanoma
HCC-2998 colon = tested on: HCC-2998 colon
PC-3 prostate = tested on: PC-3 prostate
A498 renal = tested on: A498 renal
DU-145 prostate = tested on: DU-145 prostate
MALME-3M melanoma = tested on: MALME-3M melanoma
K-562 leukemia = tested on: K-562 leukemia
SF-539 CNS = tested on: SF-539 CNS
SK-OV-3 ovarian = tested on: SK-OV-3 ovarian
NCI-H226 lung = tested on: NCI-H226 lung

With O=C(OCC(F)([N+](=O)[O-])[N+](=O)[O-])OCC(F)([N+](=O)[O-])[N+](=O)[O-] the GI50 (CCRF-CEM leukemia) was 0.879 µM, the TGI (CCRF-CEM leukemia) was 18 µM and the GI50 (HT29 colon) was 1.35 µM. It also gave a TGI (HT29 colon) of 15.5 µM, a GI50 (HCT-116 colon) of 1.17 µM and a TGI (HCT-116 colon) of 5.88 µM. For the same compound, the GI50 (SN12C renal) was 5.28 µM, the TGI (SN12C renal) was 17 µM and the GI50 (LOX IMVI melanoma) was 0.752 µM. For the same compound, the TGI (LOX IMVI melanoma) was 12.4 µM, the GI50 (U251 CNS) was 8.46 µM and the TGI (U251 CNS) was 33 µM. For the same compound, the GI50 (MCF7 breast) was 3.72 µM, the TGI (MCF7 breast) was 27.2 µM and the GI50 (HL-60(TB) leukemia) was 1.31 µM. For the same compound, the TGI (HL-60(TB) leukemia) was 4.57 µM, the GI50 (RXF 393 renal) was 5.2 µM and the TGI (RXF 393 renal) was 20.8 µM. It also gave a GI50 (NCI-H460 lung) of 1.65 µM, a TGI (NCI-H460 lung) of 7.36 µM and a GI50 (MDA-MB-435) of 1.38 µM. It also gave a TGI (MDA-MB-435) of 16.1 µM, a GI50 (SW-620 colon) of 1.24 µM and a TGI (SW-620 colon) of 16.7 µM. For the same compound, the GI50 (SR leukemia) was 1.47 µM, the TGI (SR leukemia) was 22.6 µM and the GI50 (BT-549 breast) was 18.1 µM. For the same compound, the TGI (BT-549 breast) was 32.4 µM, the GI50 (TK-10 renal) was 4.72 µM and the TGI (TK-10 renal) was 11.3 µM. The GI50 (SK-MEL-28 melanoma) was 7.63 µM, the TGI (SK-MEL-28 melanoma) was 26.9 µM and the GI50 (CAKI-1 renal) was 1.65 µM. For the same compound, the TGI (CAKI-1 renal) was 4.03 µM, the GI50 (MDA-N) was 1.7 µM and the TGI (MDA-N) was 8.29 µM. For the same compound, the GI50 (HOP-92 NSCLC) was 3.3 µM, the TGI (HOP-92 NSCLC) was 11.8 µM and the GI50 (MDA-MB-231 breast) was 9.73 µM. The TGI (MDA-MB-231 breast) was 25.3 µM, the GI50 (M14 melanoma) was 2.44 µM and the TGI (M14 melanoma) was 16.2 µM. For the same compound, the GI50 (HCC-2998 colon) was 4.39 µM, the TGI (HCC-2998 colon) was 9.61 µM and the GI50 (PC-3 prostate) was 9.06 µM. For the same compound, the TGI (PC-3 prostate) was 36.4 µM, the GI50 (A498 renal) was 3.54 µM and the TGI (A498 renal) was 19.4 µM. It also gave a GI50 (DU-145 prostate) of 5.93 µM, a TGI (DU-145 prostate) of 18.5 µM and a GI50 (MALME-3M melanoma) of 1.49 µM. It also gave a TGI (MALME-3M melanoma) of 10.5 µM, a GI50 (K-562 leukemia) of 1.97 µM and a TGI (K-562 leukemia) of 74.2 µM. The GI50 (SF-539 CNS) was 12.1 µM, the TGI (SF-539 CNS) was 25 µM and the GI50 (SK-OV-3 ovarian) was 14.4 µM. The TGI (SK-OV-3 ovarian) was 28.2 µM, the GI50 (NCI-H226 lung) was 7.9 µM and the TGI (NCI-H226 lung) was 21.9 µM.
